Measured values from patent US20260382547A1, “AGENT FOR PREVENTING OR AMELIORATING PRURITUS” (published 2026).

The chains behind the UniProt entries cited, without tags or fusion partners.
UniProt Q16581, whole entry: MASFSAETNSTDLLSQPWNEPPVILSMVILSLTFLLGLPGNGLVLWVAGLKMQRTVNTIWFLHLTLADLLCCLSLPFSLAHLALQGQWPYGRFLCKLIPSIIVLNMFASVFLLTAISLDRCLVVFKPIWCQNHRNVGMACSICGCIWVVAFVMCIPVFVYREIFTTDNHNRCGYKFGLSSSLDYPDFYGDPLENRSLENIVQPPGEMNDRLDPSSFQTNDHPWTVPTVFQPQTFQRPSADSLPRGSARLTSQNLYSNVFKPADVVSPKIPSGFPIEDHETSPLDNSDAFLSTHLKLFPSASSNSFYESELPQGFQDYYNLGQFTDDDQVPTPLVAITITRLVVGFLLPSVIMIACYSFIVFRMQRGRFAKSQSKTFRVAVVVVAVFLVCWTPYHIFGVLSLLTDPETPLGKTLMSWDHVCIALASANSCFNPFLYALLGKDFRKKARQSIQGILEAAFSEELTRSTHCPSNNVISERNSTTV

Experiments:
[1] = test system: phosphodiesterases (PDEs, mainly −3 and −4); details: mainly PDE-3 and -4; cited from earlier work
[2] = test system: blood triglycerides; details: cited from earlier work
[3] = molecular target: human C3a receptor (Homo sapiens, UniProt Q16581); test: Ca2+-flux assay, C3a receptor antagonism in HEK293 cells expressing human C3a receptor and GNA16; details: final conc.: compound 1 1 μM, tipelukast 10 μM; ligands mouse TLQP-21 1 μM or human C3a 300 nM; FIG. 1
Text: Mouse TLQP-21 (Tocris Bioscience, sequence: […], the same applies hereinafter) and human C3a recombinant protein (R&D systems) were used. The solvent was HBSS (Gibco).
The compound 1 (L-arginine, N2-[[5-(diphenylmethyl)-2-thienyl]carbonyl]) synthesized in accordance with a previous report (Rowley, J. A. et al. Journal of Medicinal Chemistry, 2020; 63(2):529-541) and tipelukast (Cayman Chemical) were used as C3a receptor antagonists. In the following evaluation, the compound 1 and tipelukast were dissolved in DMSO and diluted with HBSS as appropriate.
3. Cells for Evaluating C3a Receptor Response
Human Embryonic Kidney cells 293 (HEK293) were used, into which the expression vectors necessary for evaluation were introduced according to the following. […]
The cells for evaluating C3a receptor response described above were seeded in a BioCoat (Registered Trademark) Poly-D-Lysine 96-well Black Flat Bottom Microplate (CORNING). […] After 15 minutes, C3a receptor ligand solution (mouse TLQP-21 solution or human C3a recombinant protein solution) was added for C3a receptor stimulation, and the Ca^2+ influx associated with the stimulation was measured over time as intracellular fluorescence intensity (Ex: 480 nm, Em: 540 nm). The value obtained by subtracting the measured value when HBSS was added instead of the C3a receptor ligand solution (blank) was used as the measured value. […]

[4] = test system: ANIT model mice (C57BL/6J); test: Scratching behavior in ANIT model mice, pruritus associated with cholestasis (Example 3); details: oral, 5 mg/mL suspension at 10 mL/kg; measurement time 22 hours; FIG. 10
Method: Shaved male C57BL/6J mice were used. To eight-week-old C57BL/6J mice, α-naphthyl isothiocyanate (ANIT) dissolved in olive oil (FUJIFILM Wako Pure Chemical) was orally administered once daily for 10 days with an oral gavage needle for mice and a disposable syringe. Before administration, body weight was measured to ensure administration at 25 mg/10 mL/kg (ANIT model).
(§1) 2. Preparation of Evaluation Sample
(§2) Tipelukast (Cayman Chemical) was used. Carboxymethyl cellulose (Maruishi Pharmaceutical Co., Ltd.) prepared at 0.5% with water for injection was used as a solvent. The weighed tipelukast was lightly crushed using an agate pestle, and then the solvent dropwise addition and mixing were repeated to obtain a suspension (5 mg/mL). The preparation was done on the day of administration and stored at room temperature until administration.
3. Administration of Evaluation Sample
The dosage (10 mL/kg) was calculated by measuring body weight, and the prepared evaluation samples were administered orally with an oral gavage needle for mice and a disposable syringe.
4. […]
(§3) MicroAct (Neuroscience) was used to measure the scratching behavior. […] Measurements were made on the day before (before administration) and on the day of administration (after administration) of tipelukast, and the antipruritic effect of tipelukast was evaluated by comparing the number of scratching behaviors before and after administration.

[5] = test system: leukotriene receptor; details: cited from earlier work
[6] = test system: 5-lipoxygenase (5-LO) pathway; details: by inhibiting leukotriene biosynthesis via the 5-LO pathway; cited from earlier work
[7] = test system: 5-lipoxygenase; details: cited from earlier work
[8] = test system: AD model mice (NC/Nga); test: Scratching behavior in AD model mice (fur mite-parasitized NC/Nga, Example 2); details: oral, 5 mg/mL suspension at 10 mL/kg; measurement time 22 hours; FIG. 9
Method: NC/Nga mice were parasitized with mouse fur mites (M. musculi) to spontaneously generate dermatitis, and were used as an AD model. Fourteen-week-old males having developed dermatitis were used. After one week of acclimation, the back of their necks was shaved and their scratching behavior was measured. The mice were divided into two groups of eight mice each to ensure an equal number of scratching behaviors.
as §1, §2
3. […]
The dosage (10 mL/kg) was calculated by measuring body weight, and the prepared evaluation samples were administered orally with an oral gavage needle for mice and a disposable syringe. […]
as §3

[9] = test system: Mice; details: oral, consecutive days; eLife, 2019 8: e44116; cited from earlier work
[10] = test system: AD model mice (NC/Nga); test: Scratching behavior in AD model mice (mite allergen ointment, Reference Example 4); details: 0.5 mg/mL, 200 μL subcutaneously, three times a week; measured for 3 hours; FIG. 7
Method: Seven-week-old female NC/Nga mice were used.
Preparation of AD model mice: The back of the neck was shaved, and 100 mg of an ointment containing mite allergen: Biostir AD (Biostir Inc.) was applied to the back of the neck and auricular region under isoflurane anesthesia for initial sensitization. Four days after the first application of the ointment containing mite allergen, 150 μL of 4% (w/v) SDS solution and 100 mg of ointment containing mite allergen were applied to the back of the neck and auricular region under isoflurane anesthesia. Thereafter, the same procedure was performed four times at a frequency of once every 3 to 4 days to induce AD-like dermatitis.
(§4) 2. Sample Preparation and Method of Administration
The compound 1, whose C3a receptor antagonism was confirmed in Example 1 above, was used as a C3a receptor antagonist. The compound 1 was dissolved in saline containing 20% polyethylene glycol 400, of which 200 μL was administered subcutaneously to the back of the neck. The control group was administered the same amount of only the above solvent. The concentration of the C3a receptor antagonist solution was set at 0.5 mg/mL. […]
Four days after the last application of the ointment containing mite allergen, the scratching behavior was measured for 3 hours after the last administration of the sample. […]

[11] = test system: AEW model mice (C57BL/6J); test: Scratching behavior in AEW model mice (Reference Example 5); details: 0.5 mg/mL, 200 μL subcutaneously, once daily for 8 days; measured for 3 hours; FIG. 8
Text: The animals used were male C57BL/6J mice.
Preparation of AEW model: The back of the neck was shaved, and absorbent cotton soaked with a 1:1 (v/v) mixture of acetone and diethyl ether was applied and allowed to stand for 15 seconds. Immediately thereafter, absorbent cotton soaked with water was applied for 30 seconds. This treatment was repeated twice/day (morning and evening) for 7 days.
as §4
The compound 1, whose C3a receptor antagonism was confirmed in Example 1 above, was used as a C3a receptor antagonist. The compound 1 was dissolved in saline containing 20% polyethylene glycol 400, of which 200 μL was administered subcutaneously to the back of the neck. The control group was administered the same amount of only the above solvent. The concentration of the C3a receptor antagonist solution was set at 0.5 mg/mL. Sample administration started after the first AEW treatment and was performed at a frequency of once daily for 8 days.
3. Measurement of Scratching Behavior
Sixteen hours after the last AEW treatment, the scratching behavior was measured for 3 hours after the last administration of the sample. MicroAct (Neuroscience) was used to measure the scratching behavior.

SMILES: CCCc1c(SCCCOc2ccc(C(C)=O)c(OCCCC(=O)O)c2CCC)ccc(C(C)=O)c1O
- effect on phosphodiesterases [1]: inhibitory effect
- effect on blood triglycerides [2]: reducing blood triglycerides
- fluorescence intensity due to C3a receptor stimulation by C3a receptor ligands (Ca2+ influx), vs control [3]: suppressed
- scratching behavior (events), after vs before administration [4]: significant decrease in scratching behavior
- effect on the leukotriene receptor [5]: antagonistic effect
- effect on inflammation and fibrosis [6]: reducing inflammation and preventing fibrosis
- effect on 5-lipoxygenase [7]: inhibitory effect
- scratching behavior (events), after vs before administration [8]: significant decrease in scratching behavior

SMILES: S=C=Nc1cccc2ccccc12
- cholestasis-like symptoms and scratching behavior [9]: cholestasis-like symptoms and increased scratching behavior

SMILES: N=C(N)NCCC[C@H](NC(=O)c1ccc(C(c2ccccc2)c2ccccc2)s1)C(=O)O
- fluorescence intensity due to C3a receptor stimulation by C3a receptor ligands (Ca2+ influx), vs control [3]: suppressed
- scratching behavior compared to solvent alone [10]: significant decrease in scratching behavior
- scratching behavior compared to solvent alone [11]: significant decrease in scratching behavior
